Measurements from US20250197870A1, “RECOMBINANT E. COLI STRAIN PRODUCING 1,3-BUTANEDIOL FROM GLUCOSE AND METHOD FOR PRODUCING 1,3-BUTANEDIOL USING SAME” (ActivON Co.,Ltd., priority 2022, published 2025).

Tested on: growth of strains

**Q.** With `CC(O)CC=O` (centres unmarked) [Strain 3-HBA, 3-hydroxybutyraldehyde] as the molecule, how does the “concentration exhibiting high toxicity to cell growth” value (FIG. 9) read?
**A.** ~6000 µM

**Q.** What about the “toxicity compared with other aldehydes (in words)” value (versus acetaldehyde and propionaldehyde) of the same molecule?
**A.** more toxic than other aldehydes
